Publication PMC6318328, “Structural insights into trans-histone regulation of H3K4 methylation by unique histone H4 binding of MLL3/4” (Nature Communications, 2019)

The chains behind the UniProt entries cited, without tags or fusion partners. Residues count along the entry.
UniProt Q8NEZ4, 1055-1144: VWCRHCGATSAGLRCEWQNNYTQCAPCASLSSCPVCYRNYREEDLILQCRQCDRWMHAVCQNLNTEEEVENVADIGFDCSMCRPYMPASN
UniProt O14686, 1475-1564: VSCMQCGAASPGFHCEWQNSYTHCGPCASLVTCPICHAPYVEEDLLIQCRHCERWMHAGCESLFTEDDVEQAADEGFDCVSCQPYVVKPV

What was measured:
MLL3_(ePHD6)1055–1144 = target: T1, MLL3_(ePHD6)1055–1144 (Homo sapiens, UniProt Q8NEZ4); experiment: ITC binding of histone peptides to MLL3 ePHD6 (1055–1144); design: key: NB: no detectable binding; conditions: 20 mM Tris pH 7.5, 150 mM NaCl, 25 °C, protein 50–100 μM in cell, peptide 1–2 mM in syringe, single measurement, error from fitting curve
T1 construct: MLL3_ePHD6, residues 1055–1144 and residues 1075–1144; GST (N, cleaved yes); His (N, cleaved yes); made in house; host or cells: E. coli BL21 (DE3) Codon plus RIL
Excerpt: (§1) The DNA fragments of MLL3 and MLL4 PHD domains (MLL3_ePHD6, residues 1055–1144 and residues 1075–1144; MLL3_PHD6, residues 1085–1144; MLL3_PHD5, residues 1009–1055; MLL3_PHD5-6, residues 1008–1144; MLL3_ePHD3, residues 436–525; MLL4_ePHD6, residues 1475–1564, and residues 1495–1564; MLL4_PHD6 residues 1505–1564 and MLL4_PHD5 residues 1429–1475) were subcloned into a modified pET28GST-LIC vector by T4 ligase-independent method (Clontech, 638920) to generate N-terminal GST, His-tagged fusion protein. The recombinant protein was overexpressed in E coli BL21 (DE3) Codon plus RIL (Stratagene) at 15 °C by induction with 0.25 mM IPTG at an OD600 of 0.8 and purified by affinity chromatography on Ni-nitrilotriacetate resin (Qiagen, 30250) followed by thrombin protease treatment to remove the tag. The protein was further purified by HiTrap Q HP column (GE Healthcare, 17115401) by using buffers with 20 mM Tris, pH 8.0, 1 mM DTT, 50 mM NaCl (low salt buffer) or 1 M NaCl (high salt buffer), and Superdex75 gel-filtration column (GE Healthcare, 28989333) by using a buffer containing 20 mM Tris, pH 7.5, 150 mM NaCl, 50 μM ZnCl2, and 1 mM DTT. For crystallization experiments, purified protein was concentrated to 5 mg mL^−1 in the same buffer as gel-filtration by using Amicon Ultra-15 Centrifugal Filter Units (Millipore Corporation, UFC901024). […]

MLL4_(ePHD6)1475–1564 = target: T2, MLL4_(ePHD6)1475–1564 (Homo sapiens, UniProt O14686); experiment: ITC binding of histone peptides to MLL4 ePHD6 (1475–1564); design: key: NB: no detectable binding; conditions: 20 mM Tris pH 7.5, 150 mM NaCl, 25 °C, protein 50–100 μM in cell, peptide 1–2 mM in syringe, single measurement, error from fitting curve
T2 construct: MLL4_ePHD6, residues 1475–1564, and residues 1495–1564; GST (N, cleaved yes); His (N, cleaved yes); made in house; host or cells: E. coli BL21 (DE3) Codon plus RIL
Excerpt: as §1

Row | Kd (MLL3_(ePHD6)1055–1144) | Kd (MLL4_(ePHD6)1475–1564) | Substance
1 | NB | NB | H3_1–15K4me2: histone H3 peptide K4me2
2 | NB | NB | H3_1–15K4me3: histone H3 peptide K4me3
